One test concerns the target T1, BCL-2 (Homo sapiens, UniProt P10415).
T1 construct: containing the plasmid encoding C-terminal deleted GST-BCL-2; made in house; host or cells: Escherichia coli BL21 (DE3)
The test can be described thus: Fluorescence polarization direct binding assay.

The chains behind the UniProt entries cited, without tags or fusion partners. Residues count along the entry.
UniProt P10415, 1-218 limits assumed: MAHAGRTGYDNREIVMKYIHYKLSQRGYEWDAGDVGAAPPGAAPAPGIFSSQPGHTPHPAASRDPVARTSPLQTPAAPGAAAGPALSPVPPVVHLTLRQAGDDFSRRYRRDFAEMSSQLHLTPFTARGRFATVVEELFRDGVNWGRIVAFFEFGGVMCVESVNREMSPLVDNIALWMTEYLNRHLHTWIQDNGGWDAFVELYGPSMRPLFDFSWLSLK

The next test has as its target T2, GST-BCL-2 (Homo sapiens, UniProt P10415).
T2 construct: containing the plasmid encoding C-terminal deleted GST-BCL-2; made in house; host or cells: Escherichia coli BL21 (DE3)
Kind of test: Fluorescence polarization competitive binding (displacement of FITC-BID BH3).

Molecules are shown by their SMILES.

Consider `CCCC[C@H](NC(=O)[C@H](CO)NC(=O)[C@H](CC(=O)O)NC(=O)CNC(=O)[C@@H](NC(=O)[C@H](CCC(N)=O)NC(=O)[C@H](C)NC(=O)[C@H](CC(C)C)NC(=O)[C@H](Cc1c[nH]cn1)NC(=O)[C@H](CCCNC(=N)N)NC(=O)[C@H](C)NC(=O)[C@@H](NC(=O)[C@H](CC(N)=O)NC(=O)[C@H](CCCNC(=N)N)NC(=O)[C@@H](NC(=O)[C@@H](NC(=O)[C@H](CC(=O)O)NC(=O)[C@@H](N)CCC(=O)O)[C@@H](C)CC)[C@@H](C)CC)[C@@H](C)CC)C(C)C)C(=O)N[C@@H](CC(=O)O)C(=O)N[C@@H](CCCNC(=N)N)C(=O)N[C@@H](CO)C(=O)N[C@H](C(=O)N[C@@H](Cc1c[nH]c2ccccc12)C(N)=O)[C@@H](C)CC` [BID BH3, reference compound], for which binding on BCL-2 was characterised by a dissociation constant (Kd) of 0.269 µM. Moreover, the IC50 on GST-BCL-2 amounted to 0.838 µM.
